Bioassay records (PubChem BioAssay)
A selection: hits, their analogues and other compounds. The true share with any hit is near 2.8%.
PglD inh: PglD (C. jejuni) enzyme inhibition; purified PglD enzyme, DTNB colorimetric CoA detection; inhibition, % at 12.5 µM; 0.098% of 360,000 active; AID 602405; in the data active = inhibition above about 16%, passing the limit was not always enough; inconclusive = no clear call, values can overlap the other calls
MITF act: MITF TRPM1 promoter activation in melanoma cells | 0.75% of 300,000 active | AID 588334 | SK-MEL-5 TRPM1-promoter luciferase, 24 h; % of positive control, neutral wells = 0 | activation, % at 12.5 µM;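 active = mean activation of at least 80% with every replicate also reaching 80%; inconclusive = mean reaches 80% but some replicate falls short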
esBAF inh: SWI/SNF esBAF complex inhibition; mouse ES cells, Bmi1-luciferase knock-in reporter, 24 h; 100% = twice the neutral-well signal; reporter increase, % at 12.5 µM; 2% of 350,000 active; AID 602393; in the data active = activation above about 40%; inconclusive = no clear call, values can overlap the other calls;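 also: a rise in the Bmi1 reporter signal indicates esBAF inhibition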
Wnt act: activates Wnt/beta-catenin signaling in a reporter cell assay. 1.2% of 300,000 active. activator, plate reader. AID 743398. activation, % at 9.35 µM; in the data active = activation above about 30%, passing the limit was not always enough; inconclusive = no clear call, values can overlap the other calls
miR-122 sensor: inhibitors of miR-122 in Huh7 cells; Huh7 miR-122 Renilla luciferase sensor, 48 h; neutral wells = 0, positive control = 100; activation (reporter increase), % at 12.5 µM; 0.3% of 340,000 active; AID 602342;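 active = mean replicate activation score at least 90 and every replicate individually at or above 90; inconclusive = only one of the two criteria met; inactive = neither criterion met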;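 also: higher luciferase means less miR-122 activity so hits act as miR-122 inhibitors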
UUG fidelity: alters start codon recognition fidelity in yeast; AID 602363; activity score, % at 18.7 µM; 350,000 tested, 0.13% active; S. cerevisiae UUG-firefly luciferase reporter, luminescence/redox ratio;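 active means replicate mean at a twofold rise or more, about +100% in these data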;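 further: firefly luciferase made from a UUG start codon reports start codon fidelity; reporter light over untreated wells divided by growth signal over untreated wells; some hits fall short of that in this replicate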
PglD confirm: blocks Campylobacter jejuni PglD acetyltransferase activity; shares compounds with PglD inh; Purified C. jejuni PglD, DTNB absorbance 412 nm; 320 tested, under 10 active; AID 743156; inhibition, % at 20 µM;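 active = mean inhibition across replicates of at least 20% with every single replicate also at 20% or more; inconclusive = mean inhibition at least 20% but some replicate falls below 20%; inactive = mean inhibition under 20% and not all replicates reach it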;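 also: initial rate of CoA release by acetyl transfer from AcCoA to the UDP-4-amino sugar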
Each line names hits and unclear results; the compound was inactive in the other large screens (follow-up assays come after a bar, where they were run).

Cc1noc(C)c1NC(=O)Nc1ccc2c(c1)CC(=O)N([C@@H](C)CO)C[C@@H](C)[C@H](CN(C)S(=O)(=O)c1c(C)noc1C)O2	none (no result: MITF act, Wnt act)
Cc1ccc([N+](=O)[O-])c(C(=O)Nc2cccnc2Cl)c1	PglD inh 21 | PglD confirm inactive
O=C(Nc1cccnc1Cl)c1cc([N+](=O)[O-])ccc1Cl	none
C[C@H](CO)N1C[C@H](C)[C@@H](CN(C)C(=O)NC2CCCCC2)Oc2ccc(NC(=O)Cc3cn(C)c4ccccc34)cc2C1=O	none (no result: MITF act, Wnt act)
Cc1noc(C)c1NC(=O)N(C)C[C@H]1OCCCC[C@@H](C)Oc2ccc(NS(=O)(=O)c3ccc(Cl)cc3)cc2C(=O)N([C@H](C)CO)C[C@H]1C	none (no result: MITF act, Wnt act)
O=C(NCCc1ccc(Cl)cc1)C1CCN(S(=O)(=O)c2cccs2)CC1	PglD inh 21 | PglD confirm inactive
O=C(NCCc1ccccc1)C1CCN(S(=O)(=O)c2cccs2)CC1	none (no result: Wnt act)
CN(C)S(=O)(=O)c1ccc(Cl)c(NC(=O)CSc2nnnn2-c2ccc(O)cc2)c1	none (no result: PglD inh, esBAF inh, miR-122 sensor, UUG fidelity)
Cc1ccc(S(=O)(=O)N(C)C)cc1NC(=O)CSc1nnnn1-c1ccc(O)cc1	PglD inh 28 | PglD confirm inactive
C[C@H](CO)N1C[C@H](C)[C@@H](CN(C)S(C)(=O)=O)OCCCC[C@H](C)Oc2ccc(NC(=O)CCCN(C)C)cc2C1=O	none (no result: MITF act, Wnt act)
Cc1cc(NC(=O)Nc2ccccc2F)ccc1Br	PglD inh 40, esBAF inh inconclusive, Wnt act inconclusive | PglD confirm inactive
O=C(Nc1ccccc1)Nc1ccc(Br)cc1F	none (no result: esBAF inh)
O=[N+]([O-])c1ccc(O)c(-c2cc(C(F)(F)F)nc(-c3ccccc3)n2)c1	PglD inh 25 (no result: miR-122 sensor) | PglD confirm inactive
Oc1ccccc1-c1cc(C(F)(F)C(F)F)nc(-c2ccccc2)n1	none (no result: Wnt act, miR-122 sensor)
Cc1cccc(-n2c(N)cc(=O)[nH]c2=S)c1C	none (no result: MITF act)
Nc1cc(=O)[nH]c(=S)n1-c1cccc(C(F)(F)F)c1	PglD inh 44 (no result: Wnt act) | PglD confirm inactive
COc1ccc(S(=O)(=O)N2CCCC2)cc1Br	none
COc1ccc(S(=O)(=O)N2CCN(C(=O)C3CC3)CC2)cc1Br	PglD inh 42 (no result: miR-122 sensor) | PglD confirm inactive
O=C(CSc1nnc(-c2ccncc2)n1Cc1ccccc1)Nc1nccs1	PglD inh 48 | PglD confirm inactive
N#Cc1cnn2cc(-c3ncc(C(F)(F)F)cc3Cl)cnc12	PglD inh 47 (no result: Wnt act) | PglD confirm inactive
O=C(CN(C(=O)CNC(=O)c1cccs1)c1ccc(F)cc1)NC1CCCCC1	PglD inh 25 | PglD confirm inactive
O=C(CN(C(=O)CNC(=O)c1cccs1)c1ccc(F)cc1)NC1CCCC1	none
CCN(CC)C1CCN(C(=O)c2ccc(OC3CCN(C(=O)CCOC)CC3)cc2)C1 (centres undefined)	PglD inh 26 (no result: MITF act) | PglD confirm inactive
COc1ccc(-c2n[nH]c(=S)n2N)c(OC)c1	PglD inh 21 (no result: miR-122 sensor) | PglD confirm inactive
COc1ccc(NC(=O)Nc2ccc3c(c2)C(=O)N([C@H](C)CO)C[C@H](C)[C@H](CN(C)Cc2ccc(Cl)c(Cl)c2)O3)cc1	none (no result: MITF act, Wnt act)
COC(=O)C(=N/Nc1ccccc1C(=O)OC)/C(C)=N/O	PglD inh 20 | PglD confirm inactive
CCCCNC(=S)NNc1c(Cl)cc(Cl)cc1Cl	PglD inh 23 | PglD confirm inactive
CO[C@@H]1CN(C)C(=O)c2cc(NC(=O)NC(C)C)ccc2OC[C@H](C)N(Cc2ccc(-c3ccccn3)cc2)C[C@@H]1C	none (no result: MITF act, Wnt act)
NCc1csc(Nc2cc(Oc3ccccc3)ncn2)n1	PglD inh 21 (no result: MITF act) | PglD confirm inactive
CCOC(=O)c1sc(N(Cc2ccccc2)C(=O)CSc2ncn[nH]2)nc1C	PglD inh 21 (no result: Wnt act) | PglD confirm inactive
CCC(OC(=O)CNS(=O)(=O)c1ccccc1)C(=O)c1ccccc1 (centres undefined)	PglD inh 20 | PglD confirm inactive
O=C(c1cc(-c2ccc(Cl)cc2)on1)N1CCOCC1	PglD inh 24 (no result: Wnt act) | PglD confirm inactive
O=C(c1cc(-c2ccc(F)cc2)on1)N1CCOCC1	none (no result: MITF act)
Cc1ccc(NC(=O)c2ccccc2OCc2ccc([N+](=O)[O-])cc2)nc1	none (no result: PglD inh, esBAF inh, miR-122 sensor, UUG fidelity)
